Our source for the IC50 values is ChEMBL document CHEMBL4840312, “Discovery of memantyl urea derivatives as potent soluble epoxide hydrolase inhibitors against lipopolysaccharide-induced sepsis” (Eur J Med Chem, 2021).

Amino acid sequences for entries named in this document (tags omitted). A change or cut given only in a name is not applied to a line headed by its entry.
UniProt P34914: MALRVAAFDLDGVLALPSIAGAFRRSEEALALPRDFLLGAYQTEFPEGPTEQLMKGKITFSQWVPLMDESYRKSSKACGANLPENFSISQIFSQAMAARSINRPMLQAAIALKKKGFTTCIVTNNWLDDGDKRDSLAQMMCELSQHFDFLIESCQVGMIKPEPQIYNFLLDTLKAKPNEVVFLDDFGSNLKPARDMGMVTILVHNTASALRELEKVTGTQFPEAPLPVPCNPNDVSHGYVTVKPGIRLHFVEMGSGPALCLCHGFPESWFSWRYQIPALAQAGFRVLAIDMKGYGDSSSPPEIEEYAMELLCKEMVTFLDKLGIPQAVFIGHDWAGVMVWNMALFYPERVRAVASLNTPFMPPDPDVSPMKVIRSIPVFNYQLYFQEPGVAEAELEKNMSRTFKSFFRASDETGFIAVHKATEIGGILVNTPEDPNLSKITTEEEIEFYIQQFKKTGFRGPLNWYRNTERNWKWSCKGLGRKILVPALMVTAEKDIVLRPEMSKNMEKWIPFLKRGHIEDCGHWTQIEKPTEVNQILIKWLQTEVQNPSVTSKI

This test has as its target Bifunctional epoxide hydrolase 2 (Mus musculus, UniProt P34914).

Turning to `CC(=O)N1CCC(NC(=O)NC23CC4CC(CC(C4)C2)C3)CC1` [AR9281], 1.7 nM corresponded to half-maximal inhibition (IC50).
